# Measured affinities in a library of Ab-14 light chain variants

Antigen: PDVDLGDISGINAS, a 14-residue peptide of the SARS-CoV-2 spike HR2 region.

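Phage display of a naive human antibody library on the peptide gave the parent. Variants in AAYL50 differ from the parent at up to three CDR positions; double and triple changes were sampled at random. The assay is AlphaSeq: two haploid yeast populations carry antibody and antigen on their surface. Mating (16 h, 30 °C) was followed by selection of diploids and sequencing of their barcodes. Each replicate has its own calibration line, from reference interactions of the BCL2 family. Each pool was mated in three replicate cultures.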

Each scFv is VH, the linker GGGGSGGGGSGGGGS, VL, as in the parent Ab-14, and differs from it in the CDRs of the light chain only.
VH: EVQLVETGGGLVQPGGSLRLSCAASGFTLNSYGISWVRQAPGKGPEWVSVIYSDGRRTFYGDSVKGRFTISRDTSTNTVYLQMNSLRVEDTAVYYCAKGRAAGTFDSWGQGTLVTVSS
VL: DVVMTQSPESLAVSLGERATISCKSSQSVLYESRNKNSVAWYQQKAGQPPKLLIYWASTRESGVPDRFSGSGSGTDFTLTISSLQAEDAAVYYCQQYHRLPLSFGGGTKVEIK

Each variant is given by its three light chain CDRs, as the data file delimits them; those of the parent are KSSQSVLYESRNKNSVA, WASTRES, QQYHRLPLS. Every variant below is changed at A57 of the VL (sequential numbering). Numbers give log10(Kd / nM), so 0 is 1 nM and 3 is 1 µM. Smaller is tighter. "ND" means that the variant was in the library but no mating with the target was seen in that replicate; the authors take this as a sign of poor binding, and no number exists. As a blank, each scFv also met three strains without target: over library AAYL50, 18% of these pairings were detected, typically at 4.19 and seldom below 2.99. For each scFv, signals with the empty controls are counted beside the result, with their mean in brackets.

| CDR-L1 | CDR-L2 | CDR-L3 | log10 Kd, replicates | control signals |
|---|---|---|---|---|
| KSSSSVLYESRNKNSVA | WRSTRES | QQYHRLPLS | 3.52 / 3.09 / 2.59 | 0/9 |
| KSSQSVLYQSRNKNSVP | WMSTRES | QQYHRLPLS | ND / 5.26 / 4.38 | 3/9 (4.40) |
| KSSQSVLYESRNKNSVA | WLSTREY | QQYWRLPLS | 2.15 / 2.43 / 2.27 | 2/9 (4.19) |
| KSSQSNLYESRNKNSVA | WGSTRES | VQYHRLPLS | 3.61 / 4.37 / ND | 7/9 (4.17) |
| KSSQSVRYESRNKNSVA | WESTRES | QQYHSLPLS | 1.85 / 2.38 / 2.45 | 0/9 |
| KSSQSVLHESRNKNSRA | WYSTRES | QQYHRLPLS | 5.10 / 4.36 / ND | 4/9 (4.66) |
| KSSWSVLYESRNYNSVA | WVSTRES | QQYHRLPLS | 2.83 / 2.27 / 3.18 | 0/9 |
| KYSQSVLYESRNKNSVA | MISTRES | QQYHRLPLS | 1.53 / 1.73 / 1.66 | 6/9 (4.07) |
| SSSQSVLYESRNKNSVA | WQSTRES | QQYHRLPLK | ND / ND / ND | 0/9 |
| KSMQSVLYESRNKNSVA | WISTRES | QQMHRLPLS | ND / ND / ND | 1/9 (3.87) |
| KSIQHVLYESRNKNSVA | WTSTRES | QQYHRLPLS | 2.18 / 2.17 / 2.31 | 2/9 (2.92) |
| KSSQSVLIESRNKNSVA | WCSTRES | QQYGRLPLS | ND / 2.23 / 2.98 | 1/9 (3.16) |
| KSSQSVLYESRNKNSEA | WGSTREC | QQYHRLPLS | 3.74 / ND / ND | 0/9 |
| KYSQSVLYESRSKNSVA | WDSTRES | QQYHRLPLS | 2.34 / 2.71 / 3.55 | 0/9 |
| KSSQSVLYESRMKNSVA | WFSTRES | QKYHRLPLS | ND / ND / ND | 0/9 |
| KSDQSVLYESRNKNSVA | WGSTRES | QQYHRLPLI | 0.54 / 0.83 / 0.76 | 2/9 (5.05) |
| KSCQSDLYESRNKNSVA | WDSTRES | QQYHRLPLS | ND / ND / ND | 0/9 |
| KSSQSVLYESRNKNSVA | WVSHRES | QQYHRLPIS | 2.24 / 4.17 / ND | 2/9 (3.80) |
| KSSQSVLYLSRNKNSVA | WTQTRES | QQYHRLPLS | 3.71 / 2.88 / 3.44 | 1/9 (4.07) |
| KSSQSVLYESRNKNEVA | WTCTRES | QQYHRLPLS | ND / ND / ND | 0/9 |
| KSSQSVLYECRNKNSVG | WISTRES | QQYHRLPLS | ND / ND / ND | 1/9 (3.74) |
| KSSQSVLYESRNKNSVA | WCSMRES | QQYHRLPFS | 3.55 / ND / ND | 2/9 (4.77) |
| KSSQSVLYESRNKNSVA | WLSARES | QQYHRLPLT | ND / ND / ND | 0/9 |
| KSWQSVLMESRNKNSVA | WVSTRES | QQYHRLPLS | ND / ND / 4.12 | 2/9 (3.29) |
| KSSQSVLYESRNKNSVD | WSSTRES | QQYHRLPLS | ND / ND / ND | 5/9 (4.53) |
| KSSQSVLYESRNKLSVA | WKSTRES | QQYHRLPLE | 2.80 / ND / ND | 0/9 |
| ASSQSVLYESRNKNSVA | WFSTRES | QQYHRLPMS | ND / ND / 3.68 | 2/9 (4.35) |
| KSSQSVLYESPNKNSVA | WKDTRES | QQYHRLPLS | 3.02 / ND / ND | 0/9 |
| KSSQSVLYESRNKQSVA | WQSTRES | KQYHRLPLS | ND / ND / ND | 2/9 (2.83) |
| KSSQSVFYESRNKNSVA | WLWTRES | QQYHRLPLS | ND / ND / ND | 0/9 |
| KSSQSVLYESRNKNSVA | WCSTDER | QQYHRLPLS | 4.87 / ND / ND | 2/9 (3.89) |
| KSSQCVLYESRNKNSVA | WLSTRES | QQYHRKPLS | ND / ND / ND | 1/9 (4.89) |
| KSWQSQLYESRNKNSVA | WWSTRES | QQYHRLPLS | 1.71 / 1.63 / 2.03 | 2/9 (4.30) |
| KSSQSVLRESRNKNSVA | WMSTRES | QQYHRLPLS | 2.99 / 2.91 / 3.11 | 2/9 (4.98) |
| KSSQSVLYESRNKNSVA | WMSTRES | QQYHKLELS | ND / ND / ND | 0/9 |
| KSSQSVHYESRNKNSVA | WWSTRES | QWYHRLPLS | ND / ND / ND | 0/9 |
| KFSQSVLYESRNKNSVA | WNSTRES | QQYHRLELS | 2.62 / 2.44 / 2.43 | 3/9 (4.22) |
| KSSQSPLYESRNKNSYA | WWSTRES | QQYHRLPLS | ND / ND / ND | 0/9 |
| KSSQSVLYESRNKNSVA | WMSTRES | QQYWRLPLS | ND / ND / ND | 0/9 |
| KSSQSVLYVSRNKNSAA | WGSTRES | QQYHRLPLS | ND / 3.81 / ND | 3/9 (4.70) |
| KSSQSVDYESRNKNSTA | WNSTRES | QQYHRLPLS | 4.79 / 3.87 / ND | 5/9 (4.15) |
| KASQSVLYRSRNKNSVA | WISTRES | QQYHRLPLS | 2.41 / ND / 4.39 | 6/9 (3.86) |
| PSSQSVLYESRNKNSVA | WQSTRES | QWYHRLPLS | 4.51 / ND / ND | 3/9 (5.29) |
| KESQSVLYESRNKNSVA | WWSTRES | QQYHRLPFS | ND / 3.65 / 6.02 | 2/9 (5.01) |
| KSSQSVLYESRNKNSVA | WWSGRES | QQYHRKPLS | 2.33 / 4.08 / ND | 0/9 |
| KSSQSVLYESRNKNFVA | WRSTRES | QQYHRLPHS | ND / ND / 3.82 | 0/9 |
| KSSQSVLYESRYKNSVQ | WNSTRES | QQYHRLPLS | ND / 4.71 / ND | 1/9 (4.07) |
| KSSQSVMYESRNKNSVA | YKSTRES | QQYHRLPLS | 1.22 / 1.24 / 1.51 | 0/9 |
| KSVQSVLYESRNKNSVA | WQSTRES | LQYHRLPLS | ND / ND / ND | 1/9 (3.88) |

Again, the first 8 entries without any signal:

| CDR-L1 | CDR-L2 | CDR-L3 | log10 Kd, replicates | control signals |
|---|---|---|---|---|
| SSSQSVLYESRNKNSVA | WQSTRES | QQYHRLPLK | ND / ND / ND | 0/9 |
| KSMQSVLYESRNKNSVA | WISTRES | QQMHRLPLS | ND / ND / ND | 1/9 (3.87) |
| KSSQSVLYESRMKNSVA | WFSTRES | QKYHRLPLS | ND / ND / ND | 0/9 |
| KSCQSDLYESRNKNSVA | WDSTRES | QQYHRLPLS | ND / ND / ND | 0/9 |
| KSSQSVLYESRNKNEVA | WTCTRES | QQYHRLPLS | ND / ND / ND | 0/9 |
| KSSQSVLYECRNKNSVG | WISTRES | QQYHRLPLS | ND / ND / ND | 1/9 (3.74) |
| KSSQSVLYESRNKNSVA | WLSARES | QQYHRLPLT | ND / ND / ND | 0/9 |
| KSSQSVLYESRNKNSVD | WSSTRES | QQYHRLPLS | ND / ND / ND | 5/9 (4.53) |

From the AlphaSeq antibody data of Engelhart et al. 2022 (doi:10.1038/s41597-022-01779-4), copy in the FLAb collection.